Experiments:
[1] = tested on: HIV-1 infected primary CD4 T cells; conditions: HIV-1 vs mock infected, IncuCyte Caspase 3/7, FIG. 5
Bcl-2 [2] = target: T1, Bcl-2 (Homo sapiens (Human), UniProt P10415); assay: Bcl-2 HTRF assay (FAM-Bak peptide); format: binding; conditions: 4 nM Bcl-2, 100 nM FAM-Bak peptide, read-out: Bc1-2 IC50
Bcl-2 [3] = target: T1, Bcl-2; assay: Bcl-2 protein family binding assay (Bcl2scan platform), Bcl-2; conditions: BIM peptide ligand, 11-point dilution, read-out: Bc1-2 Kd (nm)
Protocol: E. coli were grown to log-phase and infected with T7 phage from a frozen stock (multiplicity of infection=0.4) and incubated with shaking at 32° C. until lysis (90-150 minutes). The lysates were centrifuged (5,000×g) and filtered (0.2 μm) to remove cell debris. […] The liganded beads were blocked with excess biotin and washed with blocking buffer (SeaBlock (Pierce), 1% BSA, 0.05% Tween 20, 1 mM DTT) to remove unbound ligand and to reduce non-specific phage binding. […] Test compounds were prepared as 100× stocks in 100% DMSO. Kds were determined using an 11-point 3-fold compound dilution series with one DMSO control point. […] The compounds were then diluted directly into the assays such that the final concentration of DMSO was 0.9%. All reactions performed in polypropylene 384-well plates. Each was a final volume of 0.02 ml. […] The BCL2 concentration in the eluates was measured by qPCR. Binding constants (Kds) were calculated with a standard dose-response curve using the Hill equation:
[formula] The Hill Slope was set to −1. Curves were fitted using a non-linear least square fit with the Levenberg-Marquardt algorithm.

Protein sequences, listed by entry. Tags and fused reporters are not part of them.
UniProt P10415, whole entry: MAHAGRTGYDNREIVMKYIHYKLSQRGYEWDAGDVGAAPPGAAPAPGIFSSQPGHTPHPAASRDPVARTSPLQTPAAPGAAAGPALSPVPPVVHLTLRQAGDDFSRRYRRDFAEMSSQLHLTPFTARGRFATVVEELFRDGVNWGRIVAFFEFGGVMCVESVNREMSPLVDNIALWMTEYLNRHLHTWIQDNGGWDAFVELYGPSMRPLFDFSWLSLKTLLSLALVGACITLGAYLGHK

| Compound | selectivity in killing HIV vs. mock infected cells [1] | IC50 (Bcl-2 [2]) [nM] | Kd (Bcl-2 [3]) [nM] |
| --- | --- | --- | --- |
| CC1(C)CCC(CN2CCN(c3ccc(C(=O)NS(=O)(=O)c4ccc(OCC5(F)CCOCC5)c([N+](=O)[O-])c4)c(Oc4cnc5[nH]ccc5c4)c3)CC2)=C(C23CC(C(F)F)(C2)C3)C1 [Example 36, 2-((1H-pyrrolo[2,3-b]pyridin-5-yl)oxy)-4-(4-((2-(3-(difluoromethyl)bicyclo[1.1.1]pentan-1-yl)-4,4-dimethylcyclohex-1-en-1-yl)methyl)piperazin-1-yl)-N-((4-((4-fluorotetrahydro-2H-pyran-4-yl)methoxy)-3-nitrophenyl)sulfonyl)benzamide] | exhibit selectivity in killing HIV vs. mock infected cells | – | – |
| CC1(C)CCC(c2ccc(Cl)cc2)=C(CN2CCN(c3ccc(C(=O)NS(=O)(=O)c4ccc(N[C@H](CCN5CCOCC5)CSc5ccccc5)c(S(=O)(=O)C(F)(F)F)c4)cc3)CC2)C1 [ABT-263, reference compound] | – | ≤ 10 | 10 to 100 |
| CC1(C)CCC(CN2CCN(c3ccc(C(=O)NS(=O)(=O)c4ccc(NC[C@H]5CC[C@](C)(O)CC5)c([N+](=O)[O-])c4)c(Oc4cnc5[nH]ccc5c4)c3)CC2)=C(C23CC(C(F)F)(C2)C3)C1 [Example 34, 2-((1H-pyrrolo[2,3-b]pyridin-5-yl)oxy)-4-(4-((2-(3-(difluoromethyl)bicyclo[1.1.1]pentan-1l-yl)-4,4-dimethylcyclohex-1-en-1-yl)methyl)piperazin-1-yl)-N-((4-((((1r,4r)-4-hydroxy-4-methylcyclohexyl)methyl)amino)-3-nitrophenyl)sulfonyl)benzamide] | exhibit selectivity in killing HIV vs. mock infected cells | – | – |

— patent publication US11318134B2, “Benzamide compounds” (priority 2018, dated 2022)
